According to patent publication EP0548798A1, “Antiviral agent” (SANWA KAGAKU KENKYUSHO CO., LTD., priority 1991, dated 1993):

Tested on: GMK cells
Test: Cytotoxicity observed microscopically in GMK cells (Test Example 1)
Type: cell-based, green monkey
Conditions: 10 µg/ml, in parentheses
Method: Confluent GMK cells (derived from green monkey kidney) in 96-well plates were infected with HSV-1 (Miyama strain) in the presence of various concentrations of test compounds. […] The virus titer (TCID₅₀) was determined from CPE of virus infected culture. Antivirus effects of test compounds were calculated from TCID₅₀ values of test compound treated and control cultures and represented by ΔTCID₅₀(log₁₀). Test compounds were dissolved in MEM medium, ethanol or DMSO to 10 mg/ml, and diluted with MEM medium supplemented with 1% fetal bovineserum.
In Table 1, parentheses indicate the cytotoxicity of these compounds. (-) and (±) indicate no cytotoxicity and slight cytotoxicity, respectively.

“L-Glutamic acid α-[4-(2-chlorophenyl)-1-piperazine]amide hydrochloride [Compound of Example 14]” was tested, and the cytotoxicity was “-”.
